Test [1] addresses T1, human PD-L1 (Homo sapiens, UniProt Q9NZQ7).
T1 construct: purchased Sino Biologicals or R&D systems
Description: PD-L1 Direct Binding Assay (fluorescence polarisation), human. As to conditions: Human Direct Binding Assay, fluorescence polarisation; read-out: Kd. The method, then:
(§1) Affinity of the peptides of the invention for human PD-L1 (Ki) was determined using a fluorescence polarisation assay, in accordance with the methods disclosed in WO2016/067035. Peptides of the invention with a fluorescent tag (either fluorescein, SIGMA or Alexa Fluor488™, Fisher Scientific) were diluted to 2.5 nM in PBS with 0.01% tween 20 or 50 mM HEPES with 100 mM NaCl and 0.01% tween pH 7.4 (both referred to as assay buffer). This was combined with a titration of protein in the same assay buffer as the peptide to give 1 nM peptide in a total volume of 25 μL in a black walled and bottomed low bind low volume 384 well plates, typically 5 μL assay buffer, 10 μL protein then 10 μL fluorescent peptide. One in two serial dilutions were used to give 12 different concentrations with top concentrations ranging from 500 nM for known high affinity binders to 10 μM for low affinity binders and selectivity assays. Measurements were conducted on a BMG PHERAstar FS equipped with an “FP 485 520 520” optic module which excites at 485 nm and detects parallel and perpendicular emission at 520 nm. The PHERAstar FS was set at 25° C. with 200 flashes per well and a positioning delay of 0.1 second, with each well measured at 5 to 10 minute intervals for 60 minutes. The gain used for analysis was determined for each tracer at the end of the 60 minutes where there was no protein in the well. Data was analysed using Systat Sigmaplot version 12.0. mP values were fit to a user defined quadratic equation to generate a Kd value: f=ymin+(ymax−ymin)/Lig*((x+Lig+Kd)/2−sqrt((((x+Lig+Kd)/2)^2)−(Lig*x))). “Lig” was a defined value of the concentration of tracer used.

Sequences of proteins named here, by UniProt entry; tags and fusion partners are left off. Residues count along the entry.
UniProt Q9NZQ7, 19-290: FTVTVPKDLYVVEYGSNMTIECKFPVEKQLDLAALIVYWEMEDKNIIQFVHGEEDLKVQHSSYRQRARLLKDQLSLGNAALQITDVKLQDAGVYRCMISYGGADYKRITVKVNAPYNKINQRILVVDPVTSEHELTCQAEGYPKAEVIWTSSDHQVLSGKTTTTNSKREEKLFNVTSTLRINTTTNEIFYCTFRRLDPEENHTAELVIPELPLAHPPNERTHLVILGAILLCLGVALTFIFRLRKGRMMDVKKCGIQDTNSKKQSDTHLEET
UniProt Q9EP73, 19-290: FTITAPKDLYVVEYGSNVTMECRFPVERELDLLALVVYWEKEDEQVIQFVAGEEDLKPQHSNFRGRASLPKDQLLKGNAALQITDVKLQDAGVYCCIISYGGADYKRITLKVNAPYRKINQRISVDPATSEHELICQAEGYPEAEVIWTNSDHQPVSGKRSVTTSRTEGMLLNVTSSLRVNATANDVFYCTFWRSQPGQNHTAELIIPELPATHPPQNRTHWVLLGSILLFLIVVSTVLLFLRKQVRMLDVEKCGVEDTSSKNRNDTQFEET

The target in test [2] is T1, human PD-L1. Description: PD-L1 Competition Binding Assay (fluorescence polarisation). As to conditions: competition with FI-G-Sar5-ACPDPHNICHLWCA
The method, then:
Peptides were diluted to an appropriate concentration in assay buffer as described in the direct binding assay with a maximum of 5% DMSO, then serially diluted 1 in 2. Five μL of diluted peptide was added to the plate followed by 10 μL of human PD-L1, then 10 μL fluorescent peptide added. Measurements were conducted as for the direct binding assay, however the gain was determined prior to the first measurement. Data analysis was in Systat Sigmaplot version 12.0 where the mP values were fit to a user defined cubic equation to generate a Ki value:
f=ymin+(ymax−ymin)/Lig*((Lig*((2*((Klig+Kcomp+Lig+Comp−Prot*c)^2−3*(Kcomp*(Lig−Prot*c)+Klig*(Comp−Prot*c)+Klig*Kcomp))^0.5*COS(ARCCOS((−2*(Klig+Kcomp+Lig+Comp−Prot*c)^3+9*(Klig+Kcomp+Lig+Comp−Prot*c)*(Kcomp*(Lig−Prot*c)+Klig*(Comp−Prot*c)+Klig*Kcomp)−27*(−1*Klig*Kcomp*Prot*c))/(2*((((Klig+Kcomp+Lig+Comp−Prot*c)^2−3*(Kcomp*(Lig−Prot*c)+Klig*(Comp−Prot*c)+Klig*Kcomp))^3)^0.5)))/3))−(Klig+Kcomp+Lig+Comp−Prot*c)))/((3*Klig)+((2*((Klig+Kcomp+Lig+Comp−Prot*c)^2−3*(Kcomp*(Lig−Prot*c)+Klig*(Comp−Prot*c)+Klig*Kcomp))^0.5*COS(ARCCOS((−2*(Klig+Kcomp+Lig+Comp−Prot*c)^3+9*(Klig+Kcomp+Lig+Comp−Prot*c)*(Kcomp*(Lig−Prot*c)+Klig*(Comp−Prot*c)+Klig*Kcomp)−27*(−1*Klig*Kcomp*Prot*c))/(2*((((Klig+Kcomp+Lig+Comp−Prot*c)^2−3*(Kcomp*(Lig−Prot*c)+Klig*(Comp−Prot*c)+Klig*Kcomp))^3)^0.5)))/3))−(Klig+Kcomp+Lig+Comp−Prot*c)))). “Lig”, “KLig” and “Prot” were all defined values relating to: fluorescent peptide concentration, the Kd of the fluorescent peptide and PD-L1 concentration respectively.
Background: Polarisation of emitted light reports the rotation of a fluorescent probe.

The target in test [3] is T2, mouse PD-L1 (Mus musculus, UniProt Q9EP73). In words: PD-L1 Direct Binding Assay (fluorescence polarisation), mouse. The method, then: as §1
Test [4] addresses T1, human PD-L1. In words: PD-L1 SPR Binding Assay (Biacore), human. The note with it: 25° C. The method, then:
(§2) The protein was desalted to remove uncoupled biotin using spin columns into PBS. For analysis of binding, a Biacore 3000 instrument was used utilizing a CM5 sensor chip (GE Healthcare). Streptavidin was immobilized on the chip using standard amine-coupling chemistry at 25° C. with HBS-N (10 mM HEPES, 0.15 M NaCl, pH 7.4) as the running buffer. The carboxymethyl dextran surface was activated with a 12 min injection of a 1:1 ratio of 0.4 M 1-ethyl-3-(3-dimethylaminopropyl) carbodiimide hydrochloride (EDC)/0.1 M N-hydroxy succinimide (NHS) at a flow rate of 10 μl/min. For capture of streptavidin, protein was diluted to 0.1 mg/ml in 10 mM sodium acetate (pH 4.5) and captured by injecting 70 μl onto the activated chip surface. Residual activated groups were blocked with a 7 min injection of 1 M ethanolamine (pH 8.5). Biotinylated PD-L1 stock was diluted 1:100 in HBS-N and captured on one flow cell at 5 μl/min to a level of 1000-1300 RU. Buffer was changed to PBS/0.05% Tween 20 and a dilution series of the peptides was prepared in this buffer with a final DMSO concentration of 0.5%. The top concentrations were 200 nM or 500 nM with 6 2-fold dilutions. The SPR analysis was run at 25° C. at a flow rate of Flow rate 50 μl/min with 60 seconds association and 400 seconds disassociation. Data were corrected for DMSO excluded volume effects. All data were double-referenced for blank injections and reference surface using standard processing procedures and data processing and kinetic fitting were performed using Scrubber software, version 2.0c (Biologic Software). Data were fitted using mass transport model allowing for mass transport effects where appropriate.
A general note: Surface plasmon resonance follows binding to a sensor surface in real time, without labels.

The next test has as its target T3, PD-1/PD-L1 interaction (Homo sapiens, UniProt Q9NZQ7).
T3 construct: host or cells: CHO-K1 (human PD-L1) and Jurkat (human PD-1, NFAT-luciferase)
In words: PD-1/PD-L1 Blockade Bioassay (Jurkat PD-1 NFAT-luciferase / CHO-K1 PD-L1). In kind it is cell-based. As to conditions: 6 hours incubation, luciferase fold induction. The method, then:
Effector Jurkat cells engineered to overexpress human PD-1 and express a luciferase gene under the NFAT response element were purchased from Promega. Target CHO-K1 cells which overexpress human PD-L1 and an engineered cell surface protein designed to activate the Jurkat's T cell receptor in an antigen-independent manner were also purchased from Promega. CHO-K1 cells were plated the day before the assay in Ham's F-12 Medium+10% FBS and were allowed to adhere to the plate. On the day of the assay, media was removed and Jurkat cells were plated with a dose response of test articles in RPMI1640 media with 1% FBS (80 μL total volume per well). […] After 6 hours of incubation at 37° C., 5% CO2, 80 μL of Bio-Glo reagent (Promega) was added to each well and allowed to equilibrate for 10 minutes at room temperature. Luminescence was read on the Clariostar plate reader (BMG LabTech). Fold induction was calculated by dividing the luminescence signal by the average of the background wells (wells with both cell lines and no test article). Data was graphed in Prism and fit to a 4-parameter logistic curve.

The target of test [5] is T2, mouse PD-L1. In words: PD-L1 SPR Binding Assay (Biacore), mouse. As to conditions: 25° C. The method, then:
as §2, with “Biacore experiments were performed to determine ka) (M^−1s^−1), kd (s^−1), KD (nM) values of monomeric peptides binding to human PD-L1 protein. […] The protein” for “The protein”, “2-fold dilutions. […]” for “2-fold dilutions. The SPR analysis was run at 25° C. at a flow rate of Flow rate 50 μl/min with 60 seconds association and 400 seconds disassociation. Data were corrected for DMSO excluded volume effects. All data were double-referenced for blank injections and reference surface using standard processing procedures and data processing and kinetic fitting were performed using Scrubber software, version 2.0c (Biologic Software). Data were fitted using mass transport model allowing for mass transport effects where appropriate.”

As to ACSPEWTNMCVQLHLCA [BCY534], the Kd (in general, the equilibrium constant for the complex coming apart) on human PD-L1 [1] came out at 65.8 nM. In addition, the Ki (as a rule, the equilibrium dissociation constant of an inhibitor or competing ligand from its target) on human PD-L1 [2] came to 65.8 ± 4.61 nM.

In the case of ACRDWCHWTFSHGHPCA[Sar]6[KFI] [BCY7387], the Kd on mouse PD-L1 [3] was found to be 1180 nM. On to ACSPIWTNTCIQLGLCA [BCY522], for which the Kd on human PD-L1 [1] is 618 nM. The substance also displayed a Ki on human PD-L1 [2] of 618 nM.

ACRDWCHWTFDNGHPCA[Sar]6[KFI] [BCY7385] displayed a Kd on mouse PD-L1 [3] of 58 nM. Turning to ACDPLCLSIKRGLGLCA[Sar]6[KFI] [BCY7377], at mouse PD-L1 [3], the Kd turned out to be 114 nM.

As for [Ac]SDKCSAGWLTMCKQLNLCPSH [BCY10467], at human PD-L1 [4], the Kd is 3.1 nM. At PD-1/PD-L1 interaction, the half-maximal effective concentration (EC50) (in general, the concentration giving half of the maximal effect) came to 196 nM.

For ACSWSWLTMCQKLHLCA [BCY519], the Kd stood at 29.6 nM at human PD-L1 [1] and 60.9 nM at human PD-L1 [4]. On human PD-L1 [2], the inhibitory constant (Ki) stood at 29.6 ± 9.2 nM. Regarding ACRDWCHWTFTHGHPCA[Sar]6[KFI] [BCY7388], the Kd on mouse PD-L1 [3] was found to be 44 nM. As to ACSDNWLNMCVELGLCA [BCY530], the Kd at human PD-L1 [1] amounted to 106 nM. The substance further gave a Ki on human PD-L1 [2] of 106 ± 89.3 nM. “[Ac]SDKCSAGWLTMCKQLNLCPSH-COOH [BCY10939]” registered a Kd at human PD-L1 [4] of 3.39 nM. Moreover, on PD-1/PD-L1 interaction, the EC50 turned out to be 211 nM. At mouse PD-L1 [5], “[PYA][B-Ala][Sar]10C[HArg]DWCHWTFSHGHPC [BCY8938]” showed a Kd of 117 nM.

As to ACTPNWNAMCLKLNLCA [BCY523], the Kd on human PD-L1 [1] turned out to be 362 nM. Further, at human PD-L1 [2], the Ki amounted to 362 nM. Turning to ACSESWRNMCVQLNLCA [BCY533], the Kd on human PD-L1 [1] is 19.2 nM. The same substance yielded a Ki at human PD-L1 [2] of 19.2 ± 4.7 nM.

Turning to ACSAEWRNMCVQLDLCA [BCY528], the equilibrium dissociation constant (Kd) on human PD-L1 [1] is 162 nM; at human PD-L1 [4], 291 nM. This substance showed a Ki at human PD-L1 [2] of 112 ± 37.2 nM.

Consider ACDPLCLSIKRSLGLCA[Sar]6[KFI] [BCY7374], for which binding on mouse PD-L1 [3] was characterised by a dissociation constant (Kd) of 51 nM. The same measure, in the same setting: as for ACRDWCHWTFTHSHPCA[Sar]6[KFI] [BCY7389], the figure is 132 nM. As to ACSTQWNNMCVQLGLCA [BCY535], the Kd on human PD-L1 [1] amounted to 116 nM. For the same substance, the Ki on human PD-L1 [2] is 116 ± 39.9 nM. ACSESWSNMCVSLGLCA [BCY527]: the dissociation constant (Kd) on human PD-L1 [1] is 494 nM; on human PD-L1 [4], 933 nM. On human PD-L1 [2], this substance came in with an inhibition constant Ki of 440 ± 126 nM. As to ACSTSWMNLCKQLNLCA [BCY521], at human PD-L1 [1], the Kd was determined as 170 nM. This substance also registered a Ki on human PD-L1 [2] of 170 nM.

“[Ac]SD[HArg]CS[Nle]GWLT[hPhe]CLKL[Aib]LCPSH [BCY10959]”: at human PD-L1 [4], the Kd was determined as 5.54 nM. At PD-1/PD-L1 interaction, this substance yielded an EC50 of 120 nM. ACSPEWKNMCITLNLCA [BCY539]: the Kd on human PD-L1 [1] was 116 nM. This substance also displayed a Ki at human PD-L1 [2] of 116 nM.

ACDVFTHCILLAKPCA [BCY526]: the Kd at human PD-L1 [1] turned out to be 379 nM. Moreover, at human PD-L1 [2], the Ki turned out to be 379 ± 96.4 nM. The substance ACDMRCIRIKQSLGMCA[Sar]6[KFI] [BCY7384] came in with a Kd at mouse PD-L1 [3] of 932 nM.

With ACDPLCLSIKRQLGLCA[Sar]6[KFI] [BCY7375], the Kd on mouse PD-L1 [3] stood at 66 nM. On to ACSASWSNMCVELGLCA [BCY529], for which the Kd was 356 nM at human PD-L1 [1] and 442 nM at human PD-L1 [4]. This substance had a Ki at human PD-L1 [2] of 201 ± 211 nM.

With ACSSSWTNMCVQLGLCA [BCY537], at human PD-L1 [1], the Kd is 49.5 nM. Moreover, the Ki at human PD-L1 [2] was found to be 49.5 ± 59.9 nM. As to ACSESWSNMCKSLGLCA [BCY532], the Kd on human PD-L1 [1] was 176 nM. On human PD-L1 [2], this substance showed a Ki of 243 nM. On to ACDPLCLSIRASLGLCA[Sar]6[KFI] [BCY7126], for which, at mouse PD-L1 [3], the affinity, expressed as Kd, was 943 nM. ACSESWSAMCASLGLCA [BCY531]: the equilibrium dissociation constant (Kd) on human PD-L1 [1] amounted to 311 nM. On human PD-L1 [2], this substance displayed a Ki of 118 ± 86.1 nM. With ACRDWCHWTFSHGTPCA[Sar]6[KFI] [BCY7386], binding at mouse PD-L1 [3] was characterised by a dissociation constant (Kd) of 879 nM. Substance ACDPLCLSIKRKLGLCA[Sar]6[KFI] [BCY7376] returned a Kd at mouse PD-L1 [3] of 73 nM. Take ACSAEWRNMCVELNLCA [BCY538]: the Kd on human PD-L1 [1] worked out at 524 nM. Besides, the Ki at human PD-L1 [2] was found to be 524 nM.
